The results in this text go back to patent publication US4275071A, “Imidazole derivatives” (Recordati S.A., priority 1978, dated 1981).

Broadly, the LD50 is the dose expected to kill half of the subjects tested. Low values mean a more toxic substance, high ones a less toxic substance.

This data set in a line: in vivo. Particulars: mouse. The source says:
As to MET, it is known that pentylene-tetrazol (metrazol) administered subcutaneously to mice in a loose fold of skin on the back of the neck, produces seizures. […] Failure to observe even a threshold seizure is defined as protection. In the same table the LD50 values (lethal dose 50), evaluated in the mouse both I.p. and per os, are given.

In the case of `O=C1NC(=O)C(c2ccccc2)(c2ccccc2)N1` [Diphenylidantoin, diphenylidantoin, reference compound], the LD50 is 196 mg/kg (ip) and 262 mg/kg (po).
